Target: Receptor tyrosine-protein kinase erbB-2 (Homo sapiens, UniProt P04626)
Assay: Inhibitory activity tested against protein kinase HER-2

Amino acid sequences for entries named in this document (tags omitted).
UniProt P04626, whole entry: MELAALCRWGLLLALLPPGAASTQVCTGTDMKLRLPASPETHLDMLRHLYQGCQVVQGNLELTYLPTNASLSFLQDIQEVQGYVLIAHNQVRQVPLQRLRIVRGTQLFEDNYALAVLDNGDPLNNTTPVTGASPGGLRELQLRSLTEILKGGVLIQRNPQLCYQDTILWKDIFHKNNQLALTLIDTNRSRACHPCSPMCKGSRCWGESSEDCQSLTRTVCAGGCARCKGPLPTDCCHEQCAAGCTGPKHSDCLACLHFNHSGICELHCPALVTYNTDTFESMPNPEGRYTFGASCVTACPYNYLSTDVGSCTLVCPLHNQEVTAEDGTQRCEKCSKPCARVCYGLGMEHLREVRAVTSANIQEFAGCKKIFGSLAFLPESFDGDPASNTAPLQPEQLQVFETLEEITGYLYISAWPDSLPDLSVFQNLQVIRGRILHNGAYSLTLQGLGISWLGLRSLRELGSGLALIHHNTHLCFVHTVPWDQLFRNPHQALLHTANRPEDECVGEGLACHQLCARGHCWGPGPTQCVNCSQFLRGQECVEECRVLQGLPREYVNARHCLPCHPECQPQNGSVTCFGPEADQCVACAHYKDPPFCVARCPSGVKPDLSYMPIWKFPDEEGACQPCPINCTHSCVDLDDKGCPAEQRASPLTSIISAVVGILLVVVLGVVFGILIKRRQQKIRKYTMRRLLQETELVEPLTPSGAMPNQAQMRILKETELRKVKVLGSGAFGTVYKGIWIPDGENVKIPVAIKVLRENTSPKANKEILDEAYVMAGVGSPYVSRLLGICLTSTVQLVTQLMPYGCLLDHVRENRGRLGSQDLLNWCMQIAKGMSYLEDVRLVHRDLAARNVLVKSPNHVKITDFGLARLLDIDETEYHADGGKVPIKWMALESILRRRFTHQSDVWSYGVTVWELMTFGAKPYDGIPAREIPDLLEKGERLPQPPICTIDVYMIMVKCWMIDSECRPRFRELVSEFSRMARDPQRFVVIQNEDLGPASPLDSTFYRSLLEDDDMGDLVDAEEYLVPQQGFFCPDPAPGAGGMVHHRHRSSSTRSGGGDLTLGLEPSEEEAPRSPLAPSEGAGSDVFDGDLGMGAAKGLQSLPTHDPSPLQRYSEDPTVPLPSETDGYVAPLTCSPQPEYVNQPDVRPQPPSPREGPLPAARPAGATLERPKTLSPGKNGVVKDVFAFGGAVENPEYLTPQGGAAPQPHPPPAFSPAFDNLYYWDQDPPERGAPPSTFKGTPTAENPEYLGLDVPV

Question: `COc1cc(/C=C(\C#N)C(N)=O)cc(CSC2=NCCS2)c1O` was tested. Which IC50 did it give?
Answer: The IC50 was 8.71 µM.

Reference: ChEMBL document CHEMBL1136802, “Receptor-guided alignment-based comparative 3D-QSAR studies of benzylidene malonitrile tyrphostins as EGFR and HER-2 kinase inhibitors” (J Med Chem, 2003)
